# Patent US12616669B2, “Methods and chemical compositions for treating skin conditions by providing long lasting skin pH control for improving skin barrier function” (Soteri Skin, Inc., priority 2021, dated 2026)
# Assay: Evaluation of various buffering systems on human skin
# Conditions: in vivo
smiles,measurement,value
O=C(O)CO [glycolic acid],absorption by the skin,readily absorbed by the skin
